The source of these data is patent publication US11911406B2, “PH-responsive polymer-drug conjugates for enhanced antibacterial efficacy” (priority 2020, dated 2024).

Data set [1] relates to HEK 293 human embryonic kidney cells. Nature of the data set: Cell viability test (MTT cytotoxicity). The data set is classed as cell-based. Particulars: HEK 293, 48 h, concentration range tested. How it is done: Cell viability test. Cytotoxicity of different components was tested through MTT assays. HEK 293 human embryonic kidney cells were seeded onto a 96-well plate (1×10^4 cells/well) and cultured overnight. The cells were then treated with various polymers or PDCs with serial dilutions for 48 h and their viability was measured by a standard MTT assay. Data were collected by monitoring the difference between the absorbance at 560 nm and 650 nm using a GloMax-Multi Microplate Multimode Reader (Promega, Wis., USA).

The subject of data set [2] is human red blood cells. Nature of the data set: Hemolysis assay. The data set is classed as cell-based. Particulars: 37° C., 1 h. How it is done: Hemolysis assay. […] The antibacterial polymer and PDC with different charges were serial diluted with PBS and placed in 96-well plates (100 μL/well). The blood cell suspension (10 μL/well) was added into the wells and incubated at 37° C. for 1 h to allow the complete hemolysis process. […] Following centrifugation at 3000 rpm for 7 min, the supernatant (70 μL/well) was transferred to another clean 96-well plate. OD 560 in each well was monitored by a microplate reader, and hemolysis was calculated using the following formula: […]

For “Hex-Cys-Cys-DET-strep [Positively-charged PDC]”, in data set [1], the “cytotoxicity (MTT), in words” value is listed as “limited toxicity at a high concentration of 2,000 μg/mL”. For the same substance, the “hemolytic activity, in words” value in data set [2] is “only induced hemolysis at a high level of 10 mg/mL”.
The like results for “Hex-Cys-Cys-DET-strep-DMA [Neutralized PDC]” were, in that order, “did not show any cytotoxicity” and “did not show any hemolytic activity”.
